Consider 1 compound from publication PMC7614775 (Nature chemical biology, 2022).

By UniProt entry, the sequences of proteins in these tests, tags left out.
UniProt P30519, whole entry: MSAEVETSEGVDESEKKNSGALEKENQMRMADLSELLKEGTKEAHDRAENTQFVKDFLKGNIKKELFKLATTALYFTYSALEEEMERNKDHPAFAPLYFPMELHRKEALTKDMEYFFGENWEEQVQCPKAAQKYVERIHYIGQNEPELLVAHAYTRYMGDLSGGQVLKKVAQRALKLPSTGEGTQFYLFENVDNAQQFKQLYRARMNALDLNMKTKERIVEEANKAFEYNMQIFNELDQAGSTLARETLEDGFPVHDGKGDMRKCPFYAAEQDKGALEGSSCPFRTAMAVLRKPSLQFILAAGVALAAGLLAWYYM

The target in this experiment is HMOX2_C282 (Homo sapiens, UniProt P30519). Kind of experiment: Untargeted cysteine MS-ABPP, human PBMCs treated in situ. Particulars: 1 µM.

Take `CS(=O)(=O)N1CC[C@H](C#CC(=O)N2CCC[C@@H](c3ccc(Cl)c(Cl)c3)C2)C1` [VVD-118313]: the “%Engagement” value is reported as 92%.
